{
  "source": "patent US20070248599A1",
  "about": "(priority 2006, published 2007)",
  "origin": "cited, not measured here",
  "biological_target": "LDL (low-density lipoprotein) lipid receptor (Homo sapiens, UniProt P01130)",
  "settings": "cited from earlier work",
  "data": [
    {"substance": "ApoE2: recombinant ApoE isoform with cysteine at residue 158, from Alpha Diagnostic", "values": [
      {"measurement": "normal receptor binding activity", "value": "less than 2%"}
    ]}
  ]
}
